Amino acid sequences for entries named in this document (tags omitted).
UniProt P03372, whole entry: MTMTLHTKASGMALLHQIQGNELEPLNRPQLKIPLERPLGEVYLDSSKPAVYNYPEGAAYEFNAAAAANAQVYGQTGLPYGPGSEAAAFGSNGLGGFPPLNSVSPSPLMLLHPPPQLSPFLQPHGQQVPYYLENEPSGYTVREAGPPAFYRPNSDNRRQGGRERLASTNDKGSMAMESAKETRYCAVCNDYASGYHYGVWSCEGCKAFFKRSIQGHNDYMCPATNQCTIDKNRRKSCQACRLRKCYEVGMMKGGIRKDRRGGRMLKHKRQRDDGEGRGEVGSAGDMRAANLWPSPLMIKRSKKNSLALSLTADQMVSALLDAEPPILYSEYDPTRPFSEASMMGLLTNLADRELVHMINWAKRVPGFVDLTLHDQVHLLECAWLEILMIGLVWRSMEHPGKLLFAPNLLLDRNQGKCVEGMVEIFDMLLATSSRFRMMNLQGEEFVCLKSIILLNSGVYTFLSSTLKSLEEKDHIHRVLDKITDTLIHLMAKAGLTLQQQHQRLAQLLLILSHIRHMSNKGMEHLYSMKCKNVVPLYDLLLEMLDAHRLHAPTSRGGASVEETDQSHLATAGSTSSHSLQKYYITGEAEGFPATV

In US20150080438A1, “6,7-Dihydro-5H-benzo[7]annulene derivatives, processes for their preparation, pharmaceutical products comprising them and their use for preparing medicaments” (Bayer Intellectual Property GmbH, priority 2011, published 2015):

biological target: oestrogen receptor (ER) (Homo sapiens, UniProt P03372); assay: Anti-oestrogenic action in MVLN cells (inhibition of estradiol-induced luciferase, transactivation antagonism); settings: read-out: Anti-oestrogenic action in vitro: MVLN transactivation antagonism IC50, inhibition of estradiol-induced luciferase activity

SMILES	IC50 [nM]
CN(CCCCCCC1=C(c2ccc(O)cc2)CCCc2cc(O)ccc21)CCCSCCCC(F)(F)C(F)(F)F	2
CN(CCCCCCC1=C(c2cccc(O)c2)CCCc2cc(O)ccc21)CCC[S+]([O-])CCC(F)(F)C(F)(F)F (stereo not drawn)	2
CN(CCCCCCC1=C(c2ccc(F)c(O)c2)CCCc2cc(O)ccc21)CCC[S+]([O-])CCCC(F)(F)C(F)(F)F (stereo not drawn)	2
